Test results taken from patent US12545900B2, “CGAS/DNCV-like nucleotidyltransferases and uses thereof” (Dana-Farber Cancer Institute, Inc., priority 2018, dated 2026).

Target: T1, Mus musculus STING (Mus musculus, UniProt Q3TBT3)
T1 construct: 6xHis-SUMO2 (N, cleaved yes); made in house; host or cells: E. coli BL21 CodonPlus (DE3)-RIL
T1 sequence (Q3TBT3 138-378 limits assumed): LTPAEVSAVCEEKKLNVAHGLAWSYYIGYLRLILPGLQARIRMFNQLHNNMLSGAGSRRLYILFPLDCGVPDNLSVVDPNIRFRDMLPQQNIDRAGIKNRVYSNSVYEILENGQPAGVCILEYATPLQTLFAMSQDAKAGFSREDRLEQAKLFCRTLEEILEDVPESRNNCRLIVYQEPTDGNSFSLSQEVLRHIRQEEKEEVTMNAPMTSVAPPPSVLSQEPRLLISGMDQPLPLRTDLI
Experiment: Gel shift assay, radiolabeled nucleotide binding to STING (native PAGE)

Compound: Nc1nc2c(ncn2[C@@H]2O[C@@H]3COP(=O)(O)O[C@H]4[C@@H](O)[C@H](n5cnc6c(N)ncnc65)O[C@@H]4COP(=O)(O)O[C@@H]2[C@@H]3O)c(=O)[nH]1 [2′3′ cGAMP, 2′-5′/3′-5′ cyclic GMP-AMP]
- recognition/binding of nucleotide by STING: detected by STING
